Data taken from BindingDB's records for doi:10.1021/bi0200514 (Merck Research Laboratories, 2002).
Values joined by “and” are separate entries in the source; they are usually repeats but may differ in a detail not shown here. Equal entries are not always repeated.

Amino acid sequences for entries named in this document (tags omitted). A change or cut given only in a name is not applied to a line headed by its entry. Chains listed by the source or under a name are the forms on record and can include a tag or linker.
UniProt Q99705, as listed by the source: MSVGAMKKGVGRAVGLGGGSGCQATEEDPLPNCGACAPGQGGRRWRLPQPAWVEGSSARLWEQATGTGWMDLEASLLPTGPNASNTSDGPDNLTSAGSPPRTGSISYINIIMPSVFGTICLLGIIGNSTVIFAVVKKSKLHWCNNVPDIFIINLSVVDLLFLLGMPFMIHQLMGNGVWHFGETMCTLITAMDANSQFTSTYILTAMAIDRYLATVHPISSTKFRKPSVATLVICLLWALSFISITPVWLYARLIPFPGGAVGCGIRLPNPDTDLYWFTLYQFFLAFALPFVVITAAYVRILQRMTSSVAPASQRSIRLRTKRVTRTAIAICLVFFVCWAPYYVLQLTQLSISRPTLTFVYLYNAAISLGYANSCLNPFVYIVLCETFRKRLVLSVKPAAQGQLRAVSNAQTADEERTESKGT
UniProt Q969V1: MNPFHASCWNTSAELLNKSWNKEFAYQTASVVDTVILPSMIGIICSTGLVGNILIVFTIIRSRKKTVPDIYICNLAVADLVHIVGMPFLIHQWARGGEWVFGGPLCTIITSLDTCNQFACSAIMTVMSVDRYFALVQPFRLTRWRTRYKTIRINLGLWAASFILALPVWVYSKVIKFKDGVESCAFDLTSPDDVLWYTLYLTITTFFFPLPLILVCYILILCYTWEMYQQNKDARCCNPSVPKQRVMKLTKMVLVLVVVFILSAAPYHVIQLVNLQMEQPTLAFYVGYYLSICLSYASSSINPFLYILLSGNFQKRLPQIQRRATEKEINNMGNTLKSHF

Legend:
[1] = molecular target: Melanin-concentrating hormone receptor 1 (Homo sapiens, UniProt Q99705)
[2] = molecular target: Melanin-concentrating hormone receptor 2 (Homo sapiens, UniProt Q969V1)

Ki [1]	Ki [2]	SMILES
0.34 nM	18 nM	CCCC[C@H]1C(=O)N[C@@H](CC(C)C)C(=O)NCC(=O)N[C@@H](CCCNC(=N)N)C(=O)N[C@@H](C(C)C)C(=O)N[C@@H](Cc2ccc(O)cc2)C(=O)N[C@@H](CCCNC(=N)N)C(=O)N2CCC[C@H]2C(=O)N[C@H](C(N)=O)CSSC[C@H](NC(=O)[C@H](CCCNC(=N)N)NC(C)=O)C(=O)N1C [N-Me-Nle8]
14 nM and 53 nM	34 nM and 64 nM	CSCC[C@@H]1NC(=O)[C@@H](NC(=O)CCCCN=C(N)N)CSSC[C@@H](C(N)=O)NC(=O)CCCCNC(=O)[C@H](Cc2ccc(O)cc2)NC(=O)[C@H](C(C)C)NC(=O)[C@H](CCCN=C(N)N)NC(=O)CNC(=O)[C@H](CC(C)C)NC1=O [Gva6,betaAla14,15]
67 nM	43 nM	CSCC[C@@H]1NC(=O)[C@@H](NC(=O)CCCCNC(=N)N)CSSC[C@@H](C(N)=O)NC(=O)CNC(=O)CNC(=O)[C@H](Cc2ccc(O)cc2)NC(=O)[C@H](C(C)C)NC(=O)[C@H](CCCNC(=N)N)NC(=O)CNC(=O)[C@H](CC(C)C)NC1=O [Gva6,Gly14,15]
65 nM	49 nM	CSCC[C@@H]1NC(=O)[C@@H](NC(=O)[C@H](CCCNC(=N)N)NC(C)=O)CSSC[C@@H](C(N)=O)NC(=O)CCCCNC(=O)[C@H](Cc2ccc(O)cc2)NC(=O)[C@H](C(C)C)NC(=O)[C@H](CCCNC(=N)N)NC(=O)CCCCNC1=O [Ava9,10,Ava14,15]
